Test results reported in patent US20060035940A1, “(S)-Amlodipine malate” (Sepracor Inc., priority 2004, published 2006).

Experiments:
[1] = Multiple-dose pharmacokinetic studies in dogs, oral capsule (AUC, Cmax); conditions: dog, in vivo
Description: The pharmacokinetic parameters AUC and Cmax from three multiple-dose studies in male and female dogs were compared. The 28-day pharmacokinetic assessments were compared. […] All doses were adjusted for salt form so all doses are in terms of mg base/kg. An aliquot of each unknown, standard and control sample was analyzed on a high performance liquid chromatographic system equipped with a Positive-Ion mass spectrometer detector (condition tabled below in Table 10).

[2] = Adhesion studies (tablet punch surfaces, blends with Avicel PH 101); type: physicochemical
Description: Avicel PH 101 and each (S)-amlodipine salt were pre-screened through a 25-mesh sieve to delump the powders prior to blending. […] Approximately 500 mg was weighed into the ½-inch tablet die, a tablet punch was added and 0.2 metric tons of pressure was applied using a Carver press for 2-3 seconds. The tablet was then removed, and the surfaces of the tablet punches (concave, SRC) were washed with mobile phase (1 mL). The wash was then assayed by HPLC. Three measurements were made for each blend.

Substance | bioavailability compared with maleate salt [1] | Adhesion ([2]; 5% (S)-Amlodipine salt in Avicel) | Adhesion ([2]; 25% (S)-Amlodipine salt in Avicel)
(S)-amlodipine L-malate | greater bioavailability than the maleate salt |  | 
Succinate |  | 1.6E−06 g (S)-amlodipine/cm^2 | 3.3E−06 g (S)-amlodipine/cm^2
